dFosB act-1 = mouse delta FosB homodimer activation. activation, % at 25 µM. purified delta FosB, TAMRA-CDK5 oligo fluorescence polarization; percent of positive-control signal above neutral wells. P13346. actives 0.99% (n = 340,000). AID 493131;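 active = mean activation above about 17%, with every replicate also reaching it, limit read from the data, passing the limit was not always enough; inconclusive = only one of the two conditions met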
DYRK1A inh = blocks rat Dyrk1A kinase activity; Q63470; ADP-Glo luminescence, NFATc1 peptide; actives 0.43% (n = 310,000); inhibition, % at 12.5 µM; AID 504441; in the data active = inhibition above about 50%;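 note: plate controls were vehicle with enzyme for no effect and no enzyme for full effect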
CDK5 p35 inh = blocks human CDK5/p35 kinase activity; inhibition, % at 10 µM; Recombinant CDK5/p35, ADP-Glo luminescence, 60 min; actives 0.01% (n = 330,000); Q00535+Q15078;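 active = highest replicate inhibition of at least 50% and at least 75% of replicates reaching 50%; inconclusive = only one of the two criteria met; inactive = both criteria failed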;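 note: plate controls were DMSO neutral control for no effect and GW8510 at 10 µM for full effect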
CAL PDZ FP-1 = blocks peptide binding to human CAL PDZ domain; purified CAL PDZ, TMR-peptide fluorescence polarization, 1 h; inhibition, % at 20 µM; actives 0.02% (n = 330,000); Q9HD26;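 active = highest replicate inhibition of at least 40%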;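 note: plate controls were DMSO neutral control wells for no effect and unlabeled competitor peptide control wells for full effect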
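Assay system – tagged CAL PDZ protein CerCALP, purified · Timing – 1 h at RT · Compound – single point, 20 µM · Measured by – fluorescence polarization from S- and P-plane intensities, G-factor corrected · Evaluation – inhibition from polarization loss · Probe or stimulus – TMR reporter peptide T*-PRC34 · Buffer or medium – pH 7.4 phosphate-saline buffer, reducing agent, detergent, IgG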
CAL PDZ FP-2 = inhibitors of human CAL PDZ peptide binding. Q9HD26. purified CAL PDZ, TMR-peptide fluorescence polarization, 1 h. inhibition, % at 24.9 µM. actives 0.92% (n = 300,000). AID 602252;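 active = mean inhibition of at least 30% with at least half of replicates also reaching 30%; inconclusive = no clear call, values can overlap the other calls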;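 note: 0% = DMSO neutral control and 100% = excess unlabeled competitor peptide PRC23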
UUG fidelity = modulators of start codon recognition fidelity in yeast; AID 602363; activity score, % at 18.7 µM; S. cerevisiae UUG-firefly luciferase reporter, luminescence/redox ratio; 0.13% of 350,000 active;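 active = replicate mean at a twofold rise or more, about +100% in these data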;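 note: firefly luciferase made from a UUG start codon reports start codon fidelity; reporter light over untreated wells divided by growth signal over untreated wells; some hits fall short of that in this replicate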
dFosB act-2 = delta FosB (mouse) homodimer activation; shares compounds with dFosB act-1; 2,400 tested, under 10 active; purified delta FosB, TAMRA-CDK5 oligo fluorescence polarization; normalised: neutral wells 0, positive control 100; AID 588690; activation, % at 24.9 µM;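 active = highest replicate activation at or above 34% and every replicate reaching that threshold; inconclusive = meets only one of the two criteria; inactive = meets neither criterion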;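 note: higher polarization means more probe DNA bound by delta FosB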
* = called active by the depositor; ? = inconclusive; · = not tested or not shown. Most compounds without a hit are left out; they make up all but 1.7% or so of the library.

Labels used below: A = dFosB act-1; B = DYRK1A inh; C = CDK5 p35 inh; D = CAL PDZ FP-1; E = CAL PDZ FP-2; F = UUG fidelity; G = dFosB act-2
1. COc1ccc(NC(=O)Nc2ccc3c(c2)[C@@H]2C[C@@H](CC(=O)N4CCOCC4)O[C@@H](CO)[C@@H]2O3)cc1
  A = · | B = · | C = · | D = · | E = · | F = -2 | G = ·
2. Cc1c(C(=O)OCC(=O)N2CC(=O)Nc3ccccc32)oc2ccccc12
  A = 33* | B = 4 | C = 1 | D = -1 | E = 0 | F = -9 | G = -7
3. O=C1CN(C(=O)COC(=O)c2oc3ccccc3c2COc2ccccc2)c2ccccc2N1
  A = 1 | B = -5 | C = 2 | D = -3 | E = 1 | F = -19 | G = ·
4. CN1CCN(C(=O)C[C@H]2CC[C@H]3[C@@H](COC[C@H](O)CN3Cc3cccc(Cl)c3)O2)CC1
  A = · | B = · | C = · | D = · | E = · | F = 10 | G = ·
5. C[C@@H]1CN([C@H](C)CO)C(=O)c2cc(NC(=O)C3CCCCC3)ccc2O[C@@H](C)CCCCO[C@@H]1CN(C)S(=O)(=O)c1ccccc1
  A = · | B = · | C = · | D = · | E = · | F = -5 | G = ·
6. O=C(/C=C/c1cccs1)Nc1cccc(NC(=O)/C=C/c2cccs2)n1
  A = 21* | B = 4 | C = -3 | D = -4 | E = -5 | F = -34 | G = -6
7. NNc1nc(Nc2ccc([N+](=O)[O-])cc2)nc(N2CCCCCC2)n1
  A = 67* | B = 8 | C = 0 | D = -1 | E = · | F = -28 | G = 5
8. COc1ccc(-c2nnc(SCc3nc4ccccc4c(=O)[nH]3)o2)cc1
  A = 19* | B = 1 | C = 1 | D = -1 | E = -2 | F = -14 | G = -2
9. c1ccc2[nH]c(CSc3nnc(-c4ccncc4)o3)nc2c1
  A = 3 | B = 7 | C = -1 | D = 0 | E = -1 | F = -19 | G = ·
10. O=C(Nc1ccc(Oc2ncnc3cc(Cl)ccc23)nc1)Nc1cccc(C(F)(F)F)c1
  A = 40* | B = · | C = -6 | D = -1 | E = 3 | F = -20 | G = -4
11. C[C@H](CO)N1C[C@H](C)[C@@H](CN(C)C)Oc2cc(C#Cc3cccnc3)ccc2S1(=O)=O
  A = · | B = · | C = · | D = · | E = · | F = -11 | G = ·
12. COc1ccc(CCNC(=O)c2c(O)c3cc(OC)c(OC)cc3[nH]c2=O)cc1OC
  A = · | B = · | C = · | D = · | E = · | F = 3 | G = ·
13. COc1cc2[nH]c(=O)n(Cc3ccc(C(=O)N4CCC(N5CCCCC5)CC4)cc3)c(=O)c2cc1OC
  A = 34* | B = 10 | C = 1 | D = -3 | E = · | F = 7 | G = 0
14. COc1cc2[nH]c(=O)n(Cc3ccc(C(=O)NCCCN4CCC(C)CC4)cc3)c(=O)c2cc1OC
  A = 28* | B = 4 | C = 0 | D = -2 | E = -10 | F = -17 | G = 4
15. COc1cc2[nH]c(=O)c(C(=O)NCCCN3CCCCC3)c(O)c2cc1OC
  A = 26* | B = 2 | C = -2 | D = -2 | E = -5 | F = -15 | G = ?
16. CCOc1cc2[nH]c(=S)n(Cc3ccc(C(=O)NCCN(CC)CC)cc3)c(=O)c2cc1OCC
  A = 25* | B = 7 | C = 0 | D = -7 | E = -15 | F = -22 | G = -9
17. O=C(NC1CCN(Cc2ccccc2)CC1)c1cccc(S(=O)(=O)Nc2ccc(SC(F)F)cc2)c1
  A = 26* | B = 4 | C = -3 | D = -3 | E = -4 | F = -11 | G = 2
18. CCOC(=O)c1c(CN(C)C)n(-c2ccccc2)c2cc(Br)c(OC)cc12
  A = -15 | B = -3 | C = 1 | D = -1 | E = -5 | F = 15 | G = ·
19. CCOC(=O)c1c(C)n(CC(O)CN(C)C)c2cc(Br)c(OC)cc12 (configuration not stated)
  A = 31* | B = 8 | C = 0 | D = -4 | E = -8 | F = · | G = 2
20. CCOc1cc(CNCCCN2CCOCC2)cc(Br)c1OCc1ccccc1Cl
  A = 21* | B = 7 | C = 0 | D = -3 | E = · | F = -16 | G = 1
21. CCN(CC)CCNC(=S)Nc1ccc2nc(N3CCN(C)CC3)cc(C)c2c1
  A = 24* | B = 1 | C = 2 | D = 1 | E = -2 | F = -21 | G = 0
22. CCN(CC)CCNC(=S)Nc1ccc2nc(N3CCCC3)cc(C)c2c1
  A = 32* | B = -1 | C = 1 | D = -3 | E = -4 | F = · | G = 1
23. CCCN(CCC)CCCNC(=S)Nc1ccc2nc(N3CCCC3)cc(C)c2c1
  A = 36* | B = -1 | C = 1 | D = -1 | E = -3 | F = -10 | G = ?
24. C[C@H](CO)N1C[C@H](C)[C@H](CN(C)C)Oc2ccc(NS(=O)(=O)c3ccc(Cl)cc3)cc2CC1=O
  A = · | B = · | C = · | D = · | E = · | F = 4 | G = ·
25. O=C(Nc1ccc(Cl)cc1)Nc1ccc(-c2cnco2)cc1
  A = 39* | B = 4 | C = 1 | D = -1 | E = -4 | F = -11 | G = 3
26. Cc1cc(C)c2c(n1)sc1c(-c3ccccc3)c(C#N)c(N)nc12
  A = 29* | B = -2 | C = 0 | D = -3 | E = -5 | F = · | G = -2

2 of these compounds, set out differently:
#3 O=C1CN(C(=O)COC(=O)c2oc3ccccc3c2COc2ccccc2)c2ccccc2N1
#4 CN1CCN(C(=O)C[C@H]2CC[C@H]3[C@@H](COC[C@H](O)CN3Cc3cccc(Cl)c3)O2)CC1

| Screen / compound no. | 3 | 4 |
| --- | --- | --- |
| dFosB act-1 | 1 | · |
| DYRK1A inh | -5 | · |
| CDK5 p35 inh | 2 | · |
| CAL PDZ FP-1 | -3 | · |
| CAL PDZ FP-2 | 1 | · |
| UUG fidelity | -19 | 10 |
| dFosB act-2 | · | · |

From PubChem BioAssay
